Measurements as given in patent publication US20060079453A1, “Hla binding peptides and their uses” (priority 2002, published 2006).

Chains of the proteins cited; added tags and fusions are not shown. Residues count along the entry.
UniProt P79483, 30-266: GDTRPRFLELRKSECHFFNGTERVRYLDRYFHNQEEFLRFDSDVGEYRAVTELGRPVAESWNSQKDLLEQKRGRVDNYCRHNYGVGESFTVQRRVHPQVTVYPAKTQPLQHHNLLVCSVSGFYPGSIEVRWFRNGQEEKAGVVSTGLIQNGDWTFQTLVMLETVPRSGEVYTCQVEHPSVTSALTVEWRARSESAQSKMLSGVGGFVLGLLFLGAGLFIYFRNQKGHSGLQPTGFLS
UniProt Q30154, 30-266: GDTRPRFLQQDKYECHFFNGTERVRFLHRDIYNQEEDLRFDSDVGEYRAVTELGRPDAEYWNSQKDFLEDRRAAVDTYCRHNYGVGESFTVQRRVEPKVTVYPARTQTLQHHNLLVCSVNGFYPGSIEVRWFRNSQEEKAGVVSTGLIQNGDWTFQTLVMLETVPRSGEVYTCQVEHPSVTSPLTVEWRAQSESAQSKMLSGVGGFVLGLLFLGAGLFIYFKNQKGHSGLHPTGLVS

What was measured:
Assay in all cases: biochemical
Assay type in all cases: binding
HLA-DR DRB4*0101 (DR53) = HLA-DR DRB4*0101 (DR53) (Homo sapiens, UniProt P01903+P13762, G164S)
HLA-DR DRB1*0802 (DR8) = HLA-DR DRB1*0802 (DR8) (Homo sapiens, UniProt P01903+P01911, A100R/A103L/A169T/F76Y/H45Y/I96F/K41T/L162R/M171V/P40S/Q125H/Q178H/Q39Y/Q99D/R218S/R42G/S66Y/V115G/W38E)
HLA-DR DRB1*0701 (DR7) = HLA-DR DRB1*0701 (DR7) (Homo sapiens, UniProt P01903+P01911, A100R/A102G/A103Q/D57E/D86V/E43K/F76Y/K127E/L162R/M171V/P40G/Q125H/Q99D/R33Q/R42Y/R54Q/S133A/S66F/T210M/V115G/Y107V/Y59L/Y89S); conditions: DRB1 *0701
HLA-DR DRB1*0901 (DR9) = HLA-DR DRB1*0901 (DR9) (Homo sapiens, UniProt P01903+P01911, A100R/A103E/D57H/D86V/F55Y/F60I/F76Y/I96F/K127E/L162R/M171V/P40D/Q125H/Q99R/R33Q/R42F/S133A/S66N/T210M/V115G/W38K/Y107V/Y59G/Y89S); conditions: DRB1 *0901
HLA-DR DRB3*0101 (DR52) = HLA-DR DRB3*0101 (DR52) (Homo sapiens, UniProt P01903+P79483)
HLA-DR DRB1*1101 (DR11) = HLA-DR DRB1*1101 (DR11) (Homo sapiens, UniProt P01903+P01911, A100R/A169T/A87E/I96F/K41T/L162R/M171V/P40S/Q125H/Q178H/Q39Y/Q99D/R42S/S66Y/T262R/V115G/W38E)
HLA-DR DRB5*0101 (DR51) = HLA-DR DRB5*0101 (DR51) (Homo sapiens, UniProt P01903+Q30154)
HLA-DR DRB1*0301 (DR3) = HLA-DR DRB1*0301 (DR3) (Homo sapiens, UniProt P01903+P01911, A100K/A102G/A103R/A169T/F55Y/I96L/K41T/L162R/M171V/P40S/Q125H/Q178H/Q39Y/R42S/S66N/T106N/T262R/W38E/Y61H)

Work on `CC(C)C[C@H](NC(=O)CNC(=O)[C@H](Cc1ccc(O)cc1)NC(=O)[C@H](CC(N)=O)NC(=O)[C@H](CCCCN)NC(=O)[C@H](CC(C)C)NC(=O)[C@H](CC(C)C)NC(=O)[C@H](C)NC(=O)[C@H](CC(=O)O)NC(=O)[C@H](CC(=O)O)NC(=O)[C@H](CC(N)=O)NC(=O)[C@H](Cc1c[nH]cn1)NC(=O)[C@H](CO)NC(=O)[C@H](CC(N)=O)NC(=O)[C@@H](N)[C@@H](C)O)C(=O)O` yielded an IC50 (HLA-DR DRB4*0101 (DR53); DRB4 *0101) greater than 138 µM, an IC50 (HLA-DR DRB1*0802 (DR8)) greater than 33.3 µM and an IC50 (HLA-DR DRB1*0701 (DR7)) of 246 µM. It also gave an IC50 (HLA-DR DRB1*0901 (DR9)) greater than 59.5 µM, an IC50 (HLA-DR DRB3*0101 (DR52)) of 130 µM and an IC50 (HLA-DR DRB1*1101 (DR11); DRB1 *1101) greater than 15400 nM. The IC50 (HLA-DR DRB5*0101 (DR51); DRB5 *0101) was greater than 13 µM.
In the case of `CC[C@H](C)[C@H](NC(=O)[C@H](CO)NC(=O)[C@H](CCC(=O)O)NC(=O)[C@H](CO)NC(=O)[C@H](Cc1ccccc1)NC(=O)[C@H](CS)NC(=O)[C@H](CC(C)C)NC(=O)[C@H](CO)NC(=O)[C@@H](N)[C@@H](C)O)C(=O)N1CCC[C@H]1C(=O)N[C@H](C(=O)N1CCC[C@H]1C(=O)N[C@@H](CO)C(=O)N[C@@H](CC(N)=O)C(=O)N[C@@H](CCCNC(=N)N)C(=O)O)[C@@H](C)O`, the IC50 (HLA-DR DRB1*0802 (DR8)) is reported as greater than 33.3 µM, the IC50 (HLA-DR DRB3*0101 (DR52)) is reported as 3.92 µM and the IC50 (HLA-DR DRB1*0301 (DR3)) is reported as 183 µM. The IC50 (HLA-DR DRB1*1101 (DR11); DRB1 *1101) was greater than 15400 nM and the IC50 (HLA-DR DRB5*0101 (DR51); DRB5 *0101) was greater than 38.6 µM.
With `CSCC[C@H](NC(=O)[C@H](CC(=O)O)NC(=O)[C@H](Cc1ccc(O)cc1)NC(=O)[C@H](CC(C)C)NC(=O)[C@@H]1CCCN1C(=O)[C@H](Cc1c[nH]cn1)NC(=O)[C@@H]1CCCN1C(=O)[C@H](Cc1ccccc1)NC(=O)[C@H](CO)NC(=O)[C@H](Cc1c[nH]cn1)NC(=O)[C@H](CO)NC(=O)[C@@H](NC(=O)[C@H](CCC(N)=O)NC(=O)[C@H](Cc1ccccc1)NC(=O)[C@@H](N)C(C)C)C(C)C)C(=O)O` the IC50 (HLA-DR DRB1*1101 (DR11); DRB1 *1101) was 881 nM and the IC50 (HLA-DR DRB5*0101 (DR51); DRB5 *0101) was 0.897 µM.
`CC(C)C[C@H](NC(=O)[C@H](CC(=O)O)NC(=O)[C@H](C)NC(=O)[C@H](Cc1ccccc1)NC(=O)[C@H](C)NC(=O)[C@H](Cc1ccccc1)NC(=O)[C@H](CC(=O)O)NC(=O)[C@H](Cc1ccc(O)cc1)NC(=O)[C@@H](N)C(C)C)C(=O)N[C@H](C(=O)N[C@H](C(=O)N[C@H](C(=O)N[C@@H](Cc1ccc(O)cc1)C(=O)N[C@@H](CCCNC(=N)N)C(=O)N[C@@H](CCC(=O)O)C(=O)O)C(C)C)C(C)C)[C@@H](C)O` gave an IC50 (HLA-DR DRB5*0101 (DR51); DRB5 *0101) of 27.3 µM.
With `CC[C@H](C)[C@H](NC(=O)[C@H](Cc1ccc(O)cc1)NC(=O)[C@H](CC(C)C)NC(=O)[C@H](CC(C)C)NC(=O)[C@H](Cc1ccccc1)NC(=O)[C@@H](N)CC(C)C)C(=O)N[C@@H](CC(C)C)C(=O)N[C@@H](Cc1ccccc1)C(=O)N[C@@H](CC(C)C)C(=O)N[C@H](C(=O)N[C@@H](CCCCN)C(=O)N[C@@H](CCSC)C(=O)N[C@@H](CC(N)=O)C(=O)N[C@@H](C)C(=O)N[C@@H](CC(C)C)C(=O)O)C(C)C` [LFLLYILFLVKMNAL] the IC50 (HLA-DR DRB1*0701 (DR7)) was 4.87 µM and the IC50 (HLA-DR DRB5*0101 (DR51); DRB5 *0101) was 32.4 µM.
Work on FAGIRRDGLLLRIVD yielded an IC50 (HLA-DR DRB1*1101 (DR11); read-out: DRB1 *1101) of 804 nM and an IC50 (HLA-DR DRB5*0101 (DR51); read-out: DRB5 *0101) of 1.35 µM.
In the case of FPTIPLSRLFDNAML, the IC50 (HLA-DR DRB5*0101 (DR51); read-out: DRB5 *0101) is reported as 11.5 µM.
Molecule QKQLLTNHLINTPKI has an IC50 (HLA-DR DRB5*0101 (DR51); read-out: DRB5 *0101) of 6.59 µM.
SVTWIGAAPLILSRI was tested, and the IC50 (HLA-DR DRB3*0101 (DR52); read-out: DRB3 *0101) was 13.7 µM and the IC50 (HLA-DR DRB5*0101 (DR51); read-out: DRB5 *0101) was 0.104 µM.
TYSVSFDSLFSAVKN gave an IC50 (HLA-DR DRB4*0101 (DR53); read-out: DRB4 *0101) of 10.5 µM and an IC50 (HLA-DR DRB3*0101 (DR52); read-out: DRB3 *0101) of 8.55 µM.
YDFVFADLRIVYRDG gave an IC50 (HLA-DR DRB5*0101 (DR51); read-out: DRB5 *0101) of 11.2 µM.

Where two headings read alike, the source gives them in different places.
